Source: US20230014151A1, “COMBINATION ANTIVIRAL THERAPY FOR MEASLES” (The Trustees of Columbia University in the City of New York, priority 2019, published 2023)

Amino acid sequences for entries named in this document (tags omitted). Residues count along the entry.
UniProt Q786F3, 113-550: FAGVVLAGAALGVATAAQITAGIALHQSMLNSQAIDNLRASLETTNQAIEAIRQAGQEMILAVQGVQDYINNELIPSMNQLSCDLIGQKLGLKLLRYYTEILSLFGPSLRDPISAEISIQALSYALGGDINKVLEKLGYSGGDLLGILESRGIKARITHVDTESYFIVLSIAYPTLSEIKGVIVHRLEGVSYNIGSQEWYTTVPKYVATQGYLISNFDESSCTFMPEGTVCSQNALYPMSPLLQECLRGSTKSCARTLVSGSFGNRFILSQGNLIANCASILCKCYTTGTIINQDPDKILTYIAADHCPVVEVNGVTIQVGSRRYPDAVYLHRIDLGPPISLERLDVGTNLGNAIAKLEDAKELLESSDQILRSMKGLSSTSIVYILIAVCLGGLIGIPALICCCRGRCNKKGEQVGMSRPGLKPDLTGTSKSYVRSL
UniProt Q786F3, 24-112: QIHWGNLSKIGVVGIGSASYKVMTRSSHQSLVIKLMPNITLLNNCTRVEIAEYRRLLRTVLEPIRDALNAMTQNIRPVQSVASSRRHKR

Tests used:
[1] = tested on: viral glycoproteins (H and F); CD150; experiment: beta-galactosidase complementation-based fusion assay, CD150 target cells; settings: for IC90: read-out: CD150 IC90
[2] = molecular target: viral glycoproteins (H and F); Nectin-4 (Measles virus, UniProt Q786F3); experiment: beta-galactosidase complementation-based fusion assay, Nectin-4 target cells
[3] = IC50, Table 2 (salient peptides), Nectin-4 target cells

## CC[C@H](C)[C@H](NC(=O)[C@H](C)NC(=O)[C@H](CC(N)=O)NC(=O)CNC(=O)[C@H](CC(C)C)NC(=O)[C@H](CC(N)=O)NC(=O)[C@@H](NC(=O)CNC(=O)[C@@H](NC(=O)[C@H](CC(=O)O)NC(=O)[C@H](CC(C)C)NC(=O)[C@H](CCCNC(=N)N)NC(=O)[C@H](CCC(=O)O)NC(=O)[C@H](CC(C)C)NC(=O)[C@H](CO)NC(=O)[C@@H](NC(=O)[C@@H]1CCCN1C(=O)[C@@H]1CCCN1C(=O)CNC(=O)[C@H](CO)NC(=O)CNC(=O)[C@H](CO)NC(=O)CNC(=O)CNC(=O)[C@H](Cc1ccccc1)NC(=O)[C@@H](Cc1ccccc1)NC(=O)OCc1ccccc1)[C@@H](C)CC)C(C)C)[C@@H](C)O)C(=O)N[C@@H](C)C(=O)N[C@@H](CCCCN)C(=O)N[C@@H](CC(C)C)C(=O)N[C@@H](CCC(=O)O)C(=O)N[C@@H](CC(=O)O)C(=O)N[C@@H](C)C(=O)N[C@@H](CCCCN)C(=O)N[C@@H](CCC(=O)O)C(=O)N[C@@H](CC(C)C)C(=O)N[C@@H](CC(C)C)C(=O)N[C@@H](CCC(=O)O)C(=O)N[C@@H](CO)C(=O)N[C@@H](CO)C(=O)N[C@@H](CC(=O)O)C(=O)N[C@@H](CCC(N)=O)C(=O)N[C@H](C(=O)N[C@@H](CC(C)C)C(=O)N[C@@H](CCCNC(=N)N)C(=O)N[C@@H](CSCC(=O)NCCOCCOCCOCCOCCOCCOCCOCCOCCOCCOCCOCCOCCOCCOCCOCCOCCOCCOCCOCCOCCOCCOCCOCCOCCC(=O)O[C@H]1CC[C@@]2(C)C(=CC[C@H]3[C@@H]4CC[C@H]([C@H](C)CCCC(C)C)[C@@]4(C)CC[C@@H]32)C1)C(=O)O)[C@@H](C)CC [peg24 chol [FIP-HRC450-485] (no GSGSG)]
[1]
  IC90: > 900 nM
[2]; read-out: Nectin4 IC90
  IC90: > 700 nM

## CC[C@H](C)[C@H](NC(=O)[C@H](C)NC(=O)[C@H](CC(N)=O)NC(=O)CNC(=O)[C@H](CC(C)C)NC(=O)[C@H](CC(N)=O)NC(=O)[C@@H](NC(=O)CNC(=O)[C@@H](NC(=O)[C@H](CC(=O)O)NC(=O)[C@H](CC(C)C)NC(=O)[C@H](CCCNC(=N)N)NC(=O)[C@H](CCC(=O)O)NC(=O)[C@H](CC(C)C)NC(=O)[C@H](CO)NC(=O)[C@@H](NC(=O)[C@@H]1CCCN1C(=O)[C@@H]1CCCN1C(=O)CNC(=O)[C@H](CO)NC(=O)CNC(=O)[C@H](CO)NC(=O)CNC(=O)CNC(=O)[C@H](Cc1ccccc1)NC(=O)[C@@H](Cc1ccccc1)NC(=O)OCc1ccccc1)[C@@H](C)CC)C(C)C)[C@@H](C)O)C(=O)N[C@@H](C)C(=O)N[C@@H](CCCCN)C(=O)N[C@@H](CC(C)C)C(=O)N[C@@H](CCC(=O)O)C(=O)N[C@@H](CC(=O)O)C(=O)N[C@@H](C)C(=O)N[C@@H](CCCCN)C(=O)N[C@@H](CCC(=O)O)C(=O)N[C@@H](CC(C)C)C(=O)N[C@@H](CC(C)C)C(=O)N[C@@H](CCC(=O)O)C(=O)N[C@@H](CO)C(=O)N[C@@H](CO)C(=O)N[C@@H](CC(=O)O)C(=O)N[C@@H](CCC(N)=O)C(=O)N[C@H](C(=O)N[C@@H](CC(C)C)C(=O)N[C@@H](CCCNC(=N)N)C(=O)NCC(=O)N[C@@H](CO)C(=O)NCC(=O)N[C@@H](CO)C(=O)NCC(=O)N[C@@H](CSCC(=O)O[C@H]1CC[C@@]2(C)C(=CC[C@H]3[C@@H]4CC[C@H]([C@H](C)CCCC(C)C)[C@@]4(C)CC[C@@H]32)C1)C(=O)O)[C@@H](C)CC [FIP-HRC450-485-chol]
[1]
  IC50: 185 ± 46 nM
  IC90: 845 ± 26.9 nM
[2]
  IC90: 614 ± 245 nM
[2]; [3]
  IC50: 214 ± 148 nM
[2]; Nectin4 IC50, Table 3 (extended version)
  IC50: 251 ± 191 nM
[2]; read-out: Nectin4 IC90
  IC90: 446 ± 369 nM

## CC[C@H](C)[C@H](NC(=O)[C@H](C)NC(=O)[C@H](CC(N)=O)NC(=O)CNC(=O)[C@H](CC(C)C)NC(=O)[C@H](CC(N)=O)NC(=O)[C@@H](NC(=O)CNC(=O)[C@@H](NC(=O)[C@H](CC(=O)O)NC(=O)[C@H](CC(C)C)NC(=O)[C@H](CCCNC(=N)N)NC(=O)[C@H](CCC(=O)O)NC(=O)[C@H](CC(C)C)NC(=O)[C@H](CO)NC(=O)[C@@H](NC(=O)[C@@H]1CCCN1C(=O)[C@@H]1CCCN1C(=O)CNC(=O)[C@H](CO)NC(=O)CNC(=O)[C@H](CO)NC(=O)CNC(=O)CNC(=O)[C@H](Cc1ccccc1)NC(=O)[C@@H](Cc1ccccc1)NC(=O)OCc1ccccc1)[C@@H](C)CC)C(C)C)[C@@H](C)O)C(=O)N[C@@H](C)C(=O)N[C@@H](CCCCN)C(=O)N[C@@H](CC(C)C)C(=O)N[C@@H](CCC(=O)O)C(=O)N[C@@H](CC(=O)O)C(=O)N[C@@H](C)C(=O)N[C@@H](CCCCN)C(=O)N[C@@H](CCC(=O)O)C(=O)N[C@@H](CC(C)C)C(=O)N[C@@H](CC(C)C)C(=O)N[C@@H](CCC(=O)O)C(=O)N[C@@H](CO)C(=O)N[C@@H](CO)C(=O)N[C@@H](CC(=O)O)C(=O)N[C@@H](CCC(N)=O)C(=O)N[C@H](C(=O)N[C@@H](CC(C)C)C(=O)N[C@@H](CCCNC(=N)N)C(=O)NCC(=O)N[C@@H](CO)C(=O)NCC(=O)N[C@@H](CO)C(=O)NCC(=O)N[C@@H](CSC1CC(=O)N(CC)C1=O)C(=O)O)[C@@H](C)CC (some centres unmarked) [Monomer N-Maleimide FIP-HRC450-485]
[1]
  IC90: > 1000 nM
[2]; read-out: Nectin4 IC90
  IC90: > 1000 nM

## CC[C@H](C)[C@H](NC(=O)[C@H](C)NC(=O)[C@H](CC(N)=O)NC(=O)CNC(=O)[C@H](CC(C)C)NC(=O)[C@H](CC(N)=O)NC(=O)[C@@H](NC(=O)CNC(=O)[C@@H](NC(=O)[C@H](CC(=O)O)NC(=O)[C@H](CC(C)C)NC(=O)[C@H](CCCNC(=N)N)NC(=O)[C@H](CCC(=O)O)NC(=O)[C@H](CC(C)C)NC(=O)[C@H](CO)NC(=O)[C@@H](NC(=O)[C@@H]1CCCN1C(=O)[C@@H]1CCCN1C(=O)CNC(=O)[C@H](CO)NC(=O)CNC(=O)[C@H](CO)NC(=O)CNC(=O)CNC(=O)[C@H](Cc1ccccc1)NC(=O)[C@@H](Cc1ccccc1)NC(=O)OCc1ccccc1)[C@@H](C)CC)C(C)C)[C@@H](C)O)C(=O)N[C@@H](C)C(=O)N[C@@H](CCCCN)C(=O)N[C@@H](CC(C)C)C(=O)N[C@@H](CCC(=O)O)C(=O)N[C@@H](CC(=O)O)C(=O)N[C@@H](C)C(=O)N[C@@H](CCCCN)C(=O)N[C@@H](CCC(=O)O)C(=O)N[C@@H](CC(C)C)C(=O)N[C@@H](CC(C)C)C(=O)N[C@@H](CCC(=O)O)C(=O)N[C@@H](CO)C(=O)N[C@@H](CO)C(=O)N[C@@H](CC(=O)O)C(=O)N[C@@H](CCC(N)=O)C(=O)N[C@H](C(=O)N[C@@H](CC(C)C)C(=O)N[C@@H](CCCNC(=N)N)C(=O)N[C@@H](CSCC(=O)NCCOCCOCCOCCOCCC(=O)O[C@H]1CC[C@@]2(C)C(=CC[C@H]3[C@@H]4CC[C@H]([C@H](C)CCCC(C)C)[C@@]4(C)CC[C@@H]32)C1)C(=O)O)[C@@H](C)CC [FIP-HRC450-485-peg4-chol (no GSGSG)]
[1]
  IC90: 278 ± 26.6 nM
[2]; read-out: Nectin4 IC90
  IC90: 825 ± 229 nM

## CC[C@H](C)[C@H](NC(=O)[C@H](C)NC(=O)[C@H](CC(N)=O)NC(=O)CNC(=O)[C@H](CC(C)C)NC(=O)[C@H](CC(N)=O)NC(=O)[C@@H](NC(=O)CNC(=O)[C@@H](NC(=O)[C@H](CC(=O)O)NC(=O)[C@H](CC(C)C)NC(=O)[C@H](CCCNC(=N)N)NC(=O)[C@H](CCC(=O)O)NC(=O)[C@H](CC(C)C)NC(=O)[C@H](CO)NC(=O)[C@@H](NC(=O)[C@@H]1CCCN1C(=O)[C@@H]1CCCN1C(=O)CNC(=O)[C@H](CO)NC(=O)CNC(=O)[C@H](CO)NC(=O)CNC(=O)CNC(=O)[C@H](Cc1ccccc1)NC(=O)[C@@H](Cc1ccccc1)NC(=O)OCc1ccccc1)[C@@H](C)CC)C(C)C)[C@@H](C)O)C(=O)N[C@@H](C)C(=O)N[C@@H](CCCCN)C(=O)N[C@@H](CC(C)C)C(=O)N[C@@H](CCC(=O)O)C(=O)N[C@@H](CC(=O)O)C(=O)N[C@@H](C)C(=O)N[C@@H](CCCCN)C(=O)N[C@@H](CCC(=O)O)C(=O)N[C@@H](CC(C)C)C(=O)N[C@@H](CC(C)C)C(=O)N[C@@H](CCC(=O)O)C(=O)N[C@@H](CO)C(=O)N[C@@H](CO)C(=O)N[C@@H](CC(=O)O)C(=O)N[C@@H](CCC(N)=O)C(=O)N[C@H](C(=O)N[C@@H](CC(C)C)C(=O)N[C@@H](CCCNC(=N)N)C(=O)N[C@@H](CSC1CC(=O)N(CC)C1=O)C(=O)O)[C@@H](C)CC (some centres unmarked)
[1]
  IC90: > 1000 nM
[2]; read-out: Nectin4 IC90
  IC90: > 10000 nM

## CC[C@H](C)[C@H](NC(=O)[C@H](C)NC(=O)[C@H](CC(N)=O)NC(=O)CNC(=O)[C@H](CC(C)C)NC(=O)[C@H](CC(N)=O)NC(=O)[C@@H](NC(=O)CNC(=O)[C@@H](NC(=O)[C@H](CC(=O)O)NC(=O)[C@H](CC(C)C)NC(=O)[C@H](CCCNC(=N)N)NC(=O)[C@H](CCC(=O)O)NC(=O)[C@H](CC(C)C)NC(=O)[C@H](CO)NC(=O)[C@@H](NC(=O)[C@@H]1CCCN1C(=O)[C@@H]1CCCN1C(C)=O)[C@@H](C)CC)C(C)C)[C@@H](C)O)C(=O)N[C@@H](C)C(=O)N[C@@H](CCCCN)C(=O)N[C@@H](CC(C)C)C(=O)N[C@@H](CCC(=O)O)C(=O)N[C@@H](CC(=O)O)C(=O)N[C@@H](C)C(=O)N[C@@H](CCCCN)C(=O)N[C@@H](CCC(=O)O)C(=O)N[C@@H](CC(C)C)C(=O)N[C@@H](CC(C)C)C(=O)N[C@@H](CCC(=O)O)C(=O)N[C@@H](CO)C(=O)N[C@@H](CO)C(=O)N[C@@H](CC(=O)O)C(=O)N[C@@H](CCC(N)=O)C(=O)N[C@H](C(=O)N[C@@H](CC(C)C)C(=O)N[C@@H](CCCNC(=N)N)C(=O)NCC(=O)N[C@@H](CO)C(=O)NCC(=O)N[C@@H](CO)C(=O)NCC(=O)N[C@@H](CSCC(=O)O[C@H]1CC[C@@]2(C)C(=CC[C@H]3[C@@H]4CC[C@H]([C@H](C)CCCC(C)C)[C@@]4(C)CC[C@@H]32)C1)C(=O)O)[C@@H](C)CC [HRC450-485-chol]
[2]
  IC90: > 7000 nM
[2]; [3]
  IC50: 103 ± 10.2 nM
[2]; read-out: Nectin4 IC90
  IC90: > 1000 nM

Where two headings read alike, the source gives them in different places.
